Among the data in article PMC7904868 are Kd values, retold here.

Chains of the proteins cited; added tags and fusions are not shown. A line that says so, or that is headed by a name, gives the form on record, which may keep a tag or linker. Residues count along the entry.
UniProt P12314, 16-292: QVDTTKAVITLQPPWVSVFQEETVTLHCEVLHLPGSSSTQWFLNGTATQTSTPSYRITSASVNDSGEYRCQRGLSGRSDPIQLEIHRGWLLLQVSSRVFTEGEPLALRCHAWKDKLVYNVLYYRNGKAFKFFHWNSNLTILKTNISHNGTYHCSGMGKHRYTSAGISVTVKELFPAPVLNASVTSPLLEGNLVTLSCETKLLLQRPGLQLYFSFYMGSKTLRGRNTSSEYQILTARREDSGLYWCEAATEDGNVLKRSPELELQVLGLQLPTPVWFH
FcS anti-CD2 IgG4 (not stated | human (humanized antibody)), heavy, as listed by the source, chain 1 of 2: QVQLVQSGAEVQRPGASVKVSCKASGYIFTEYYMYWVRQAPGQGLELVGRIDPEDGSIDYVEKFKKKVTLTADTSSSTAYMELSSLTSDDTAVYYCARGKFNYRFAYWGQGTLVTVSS
FcS anti-CD2 IgG4 (not stated | human (humanized antibody)), light, as listed by the source, chain 2 of 2: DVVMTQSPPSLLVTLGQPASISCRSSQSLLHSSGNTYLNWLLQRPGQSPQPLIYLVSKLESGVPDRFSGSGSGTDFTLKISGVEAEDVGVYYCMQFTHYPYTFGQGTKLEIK

Holding throughout (test): SPR; Biacore T200, 25°C; IgG captured on amine-coupled recombinant truncated human CD2 (CM5 chip); Fcγ receptors injected for 120 s in concentration series up to 0.5 μM; 10 mM HEPES pH 7.4, 150 mM NaCl, 0.5 mM EDTA, 0.05% Tween20; 1:1 or heterogeneous binding model, or steady state analysis for weaker interactions
(SPR reads the build-up and loss of mass on a sensor chip optically.)

Experiment [1] deals with FcS anti-CD2 IgG4 (not stated | human (humanized antibody)).
Experiment [2] has as its target Deglycosylated (DG) siplizumab (human (humanized antibody)).
Experiment [3] has as its target FcS anti-CD2 IgG2 (not stated | human (humanized antibody)).
Experiment [4] has as its target Fc-silent siplizumab (FcS anti-CD2 IgG1) (human (humanized antibody)).

pKd: −log10 of the molar value. Some results are limits rather than exact numbers.

As for “Fc gamma receptor I (FcγRI) (from UniProt P12314 16-292)”, the pKd (commonly −log10 of the Kd, conventionally taken in molar units) in experiment [1] is below 5.70; in experiment [2], 8.95; in experiment [3], below 5.70; in experiment [4], below 5.70.
